The term EC50 denotes the midpoint of the concentration-response curve. A word on the Kd: it is the constant that tells how readily two partners part at equilibrium. A word on the koff: it is the first-order rate constant of dissociation. As a reminder, the kon is the second-order rate constant of association.

Several values for one entry are separate records, joined by “and”; a condition that tells them apart may be missing. Identical values can stand only once.

Test [1] addresses murine TNFα (mouse) (UniProt P06804). The experiment in a line: ELISA, antibody captured on anti-human Fc coated plate, biotinylated murine TNFα titrated (EC50 in M of b-murine TNFα), prolonged wash at pH 6.0, neutravidin-HRP.
The target is the same in test [2]. The description is as above. This is another data set of the same source.
For test [3] the target is unchanged. The experiment in a line: ELISA, antibody captured on anti-human Fc coated plate, biotinylated murine TNFα titrated (EC50 in M of b-murine TNFα), brief wash at pH 7.4, neutravidin-HRP.
The target is the same in test [4]. The experiment in a line: ELISA, antibody captured on anti-human Fc coated plate, biotinylated murine TNFα titrated (EC50 in M of b-murine TNFα), prolonged wash at pH 7.4, neutravidin-HRP. Background: In an ELISA, binding on a coated surface is turned into a signal by an enzyme label.
For test [5] the target is unchanged. The description is as above. The source holds these as a separate data set.
In test [6] the target is cynomolgus TNFα (cynomolgus monkey) (UniProt P79337). The experiment in a line: ELISA, antibody captured on anti-human kappa coated plate, biotinylated cynomolgus TNFα titrated (EC50 in M of b-cynomolgus TNFα), prolonged wash at pH 6.0, neutravidin-HRP.
Test [7] has the same target.
For test [8] the target is unchanged. The experiment in a line: ELISA, antibody captured on anti-human kappa coated plate, biotinylated cynomolgus TNFα titrated (EC50 in M of b-cynomolgus TNFα), pH 7.4 wash, neutravidin-HRP.
In test [9] the target is murine TNFα (mouse) (UniProt P06804). The experiment in a line: ELISA, antibody captured, biotinylated murine TNFα titrated, prolonged wash pH 7.4; pH 7.4 (FIG. 19A).
Test [10] shares this target. The experiment in a line: ELISA, antibody captured, biotinylated murine TNFα titrated, prolonged wash pH 6.0; prolonged pH 6.0 wash (FIG. 19B).
Test [11] has the same target. The experiment in a line: ELISA, antibody captured on anti-human Fc coated plate, biotinylated murine TNFα titrated (EC50 in M of b-murine TNFα), prolonged wash at pH 6.0, neutravidin-HRP; curve has no upper plateau (A450 about 0.43 at log -7.9).
Test [12] shares this target. The experiment in a line: ELISA, antibody captured by anti-human Fc, biotinylated murine TNFα titrated, short wash pH 7.4.
The target in test [13] is membrane-associated TNFα (membrane-bound mutant TNFα with amino acids 77 through 88 removed) on CHO K-1 cells (human) (UniProt P01375). The experiment in a line: cell ELISA on live mTNFα-expressing CHO cells, on ice.
For test [14] the target is unchanged. The experiment in a line: cell ELISA on mTNFα CHO cells against ELISA on recombinant human TNFα.
Test [15] has the same target. The experiment in a line: cell ELISA on live mTNFα-expressing CHO cells, average of the runs.
Test [16] deals with recombinant human TNFα (human) (UniProt P01375).
The target of test [17] is membrane-associated TNFα (membrane-bound mutant TNFα with amino acids 77 through 88 removed) on CHO K-1 cells (human) (UniProt P01375). The experiment in a line: flow cytometry on mTNFα-expressing CHO cells, 10 µg/mL antibody, anti-human kappa-FITC. Background: Flow cytometry measures light scatter and fluorescence of single cells or particles in a stream.
Test [18] concerns the target recombinant human TNFα (human) (UniProt P01375). This is another data set of the same source.
Test [19] has the same target. The experiment in a line: ELISA on plate-coated recombinant human TNFα, antibody titrated, binding at pH 7.4, prolonged wash at pH 6.0.
Test [20] shares this target. The experiment in a line: ELISA, immobilised recombinant human TNFα.
The target is the same in test [21]. The experiment in a line: ELISA, antibody captured on anti-human Fc coated plate, biotinylated human TNFα titrated (EC50 in M of b-TNF), prolonged wash at pH 7.4, neutravidin-HRP.
Test [22] has the same target. The experiment in a line: ELISA, antibody captured on anti-human Fc coated plate, biotinylated human TNFα titrated (EC50 in M of b-TNF), prolonged wash at pH 6.0, neutravidin-HRP.
Test [23] shares this target. The experiment in a line: ELISA, coated human TNFα, prolonged wash pH 6.0 against pH 7.4.
Test [24] shares this target. The experiment in a line: BLI (Octet), follow-up study, biotinylated human TNFα on sensor, pH 7.4, global 1:1 fit.
For test [25] the target is unchanged. The experiment in a line: ELISA, immobilised recombinant human TNFα, average (one run).
In test [26] the target is cynomolgus TNFα (cynomolgus monkey) (UniProt P79337). The experiment in a line: ELISA, antibody captured on anti-human kappa coated plate, biotinylated cynomolgus TNFα titrated (EC50 in M of b-cynomolgus TNFα), prolonged wash at pH 6.0, neutravidin-HRP; curve has no upper plateau (A450 about 0.6 at log -7.3).

In the case of “AF-M2631 (antibody; other documents disagree on this pair)”, the EC50 with murine TNFα (mouse) [1] was 0.109 nM; in the test with murine TNFα (mouse) [2], 0.145 nM; with murine TNFα (mouse) [3] it was 0.138 nM; in the test with murine TNFα (mouse) [4], 0.0832 nM; in the test with murine TNFα (mouse) [5], 0.0619 nM.
Take AF-B2637 (antibody): the figures for the EC50 in [6] and in [8] were 0.807 nM and 0.514 nM, respectively. This substance also had an IC50: inhibition of stimulation of HEK-Blue TNFα reporter cells by 5 pM cynomolgus TNFα (SEAP, A650) in test [7] of 1.78e-09 M.
Regarding AF-M2630 (antibody), in [6], the EC50 was 0.782 nM. This substance had an IC50: inhibition of stimulation of HEK-Blue TNFα reporter cells by 5 pM cynomolgus TNFα (SEAP, A650) in test [7] of 2.83e-10 M.
As to “AF-M2633 (antibody; other documents disagree on this pair)”, the 50% effective concentration (EC50) with murine TNFα (mouse) [9] was found to be 0.217 nM; with murine TNFα (mouse) [10], 0.573 nM.
In the case of “AF-B2637 (antibody; other documents disagree on this pair)”, the EC50 in the test with murine TNFα (mouse) [11] amounted to 2.25 nM; with murine TNFα (mouse) [2], 1.78 nM; with murine TNFα (mouse) [4] it was 0.534 nM; with murine TNFα (mouse) [12] it was 0.4 nM; with murine TNFα (mouse) [5], 0.376 nM.
Regarding “AF-M2630 (antibody; other documents disagree on this pair)”, the EC50 stood at 0.0575 nM with murine TNFα (mouse) [1], 0.0633 nM in the test with murine TNFα (mouse) [2], 0.0755 nM with murine TNFα (mouse) [4] and 0.0598 nM with murine TNFα (mouse) [5].
Regarding AF-B2631 (antibody), the EC50 in test [6] was 1.73 nM; in test [13], 0.41 nM and 0.343 nM and 0.274 nM; in [8], 0.267 nM; in test [15], 0.342 nM. Moreover, the IC50: inhibition of stimulation of HEK-Blue TNFα reporter cells by 5 pM cynomolgus TNFα (SEAP, A650) in test [7] was found to be 4.26e-10 M. Besides, the Ratio (mTNFα/rTNFα) of average EC50 in test [14] came out at 3.9. Besides, in test [16], the IC50: inhibition of stimulation of HEK-Blue TNFα reporter cells by 5 pM human TNFα (SEAP, A650) was 3.22e-10 M. The substance also registered an MFI in test [17] of 618 MFI. Besides, the IC50: inhibition of stimulation of THP1-Blue NF-kB reporter cells by 10 pM human TNFα (SEAP, A650) in test [18] was 1.58e-11 M.
Take “AF-B2631 (antibody; other documents disagree on this pair)”: the EC50 in test [19] was found to be 0.111 nM; in test [20] it was 0.087 nM; in [21], 0.0621 nM; in test [22], 0.0721 nM; with murine TNFα (mouse) [1] it was 0.0593 nM; in the test with murine TNFα (mouse) [2], 0.0892 nM. Besides, the EC50 came out at 0.106 nM in the test with murine TNFα (mouse) [3], 0.0663 nM with murine TNFα (mouse) [4], 0.0471 nM in the test with murine TNFα (mouse) [5] and 0.087 nM in [25]. In addition, the fold increase of EC50, pH 6.0 wash against pH 7.4 wash in test [23] is 1.3 fold. Moreover, the Kd in test [24] is less than 1 pM. Also, the koff in test [24] was less than 1e-07 s⁻¹. Moreover, the kon in test [24] is 414000 M⁻¹ s⁻¹.
AF-M2631 (antibody) displayed an IC50: inhibition of stimulation of HEK-Blue TNFα reporter cells by 5 pM cynomolgus TNFα (SEAP, A650) in [7] of 6.43e-09 M. Also, the EC50 in [8] came out at 0.307 nM; in test [26] it was 13.8 nM.

The record behind these values is patent US20250154242A1.
